Laboratory results from patent publication US20160046682A1.

Chains of the proteins cited; added tags and fusions are not shown. Residues count along the entry.
UniProt P25101, 21-427: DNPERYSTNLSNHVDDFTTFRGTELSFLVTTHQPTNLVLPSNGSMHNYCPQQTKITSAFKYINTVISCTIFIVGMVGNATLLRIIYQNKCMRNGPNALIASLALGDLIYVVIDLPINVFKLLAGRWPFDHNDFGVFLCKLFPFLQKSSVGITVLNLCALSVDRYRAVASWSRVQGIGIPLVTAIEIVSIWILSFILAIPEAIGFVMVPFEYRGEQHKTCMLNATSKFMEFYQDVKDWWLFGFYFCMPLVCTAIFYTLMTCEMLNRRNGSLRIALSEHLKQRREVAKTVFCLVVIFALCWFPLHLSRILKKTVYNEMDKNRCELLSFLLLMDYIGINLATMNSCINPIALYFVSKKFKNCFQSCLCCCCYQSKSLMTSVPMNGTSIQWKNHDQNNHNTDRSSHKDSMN

Biological target: endothelin receptor A (human) (UniProt P25101)
Experiment: cell-based or functional assay

- contraction of collagen lattices with human uterine smooth muscle cells (relative lattice area, 100 nM ET-1) (% of lattices not treated with ET-1): 78
Substance: endothelin-1 (from UniProt P05305 53-73) (peptide)
